The data set can be described thus: label from the status in PepcDB records.

Consider “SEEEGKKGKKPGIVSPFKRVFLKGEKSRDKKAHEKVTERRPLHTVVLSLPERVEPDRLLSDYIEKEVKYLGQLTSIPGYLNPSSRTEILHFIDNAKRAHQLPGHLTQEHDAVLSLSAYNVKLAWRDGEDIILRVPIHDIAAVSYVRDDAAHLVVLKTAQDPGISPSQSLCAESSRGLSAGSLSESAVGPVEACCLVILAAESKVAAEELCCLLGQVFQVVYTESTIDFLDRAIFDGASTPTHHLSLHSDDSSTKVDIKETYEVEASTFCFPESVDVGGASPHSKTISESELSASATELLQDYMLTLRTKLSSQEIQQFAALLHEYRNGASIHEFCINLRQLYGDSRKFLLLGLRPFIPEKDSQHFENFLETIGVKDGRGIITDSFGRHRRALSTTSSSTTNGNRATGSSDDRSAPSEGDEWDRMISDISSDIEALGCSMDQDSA”, for which the protein production result is reported as “not failed”.

(Values after a protein production outcome set (Wang et al. 2014).)
